Patent publication EP4840464A1, “FAK INHIBITOR AND PAN-RAS INHIBITOR” (dated 2026)
Values joined by “and” are separate entries in the source; they are usually repeats but may differ in a detail not shown here. Equal entries are not always repeated.

What was measured:
Capan1 cells = experiment: In vitro proliferation inhibition on RAS mutant cell line Capan1 (CCK-8); settings: 120 hours; for Percentage (%) of cell viability: Capan1, duplicate columns
[1] = system: Capan1 human pancreatic cancer subcutaneous xenograft model; experiment: In vivo anti-tumor efficacy in Capan1 subcutaneous xenograft model
[2] = system: CT26 colorectal cancer subcutaneous xenograft model; experiment: In vivo antitumor efficacy in CT26 subcutaneous xenograft model
[3] = compared with the blank control group

COc1cc(C(=O)NC2CCN(C)CC2)c(F)cc1Nc1ncc(C(F)(F)F)c(Oc2cccc3c2C(=O)N(C)C3)n1
Percentage (%) of cell viability (Capan1 cells; drug concentration 0.015242 µM, 0.015242 µM): 110% and 126%
Percentage (%) of cell viability (Capan1 cells; drug concentration 1.234568 µM, 1.23457 µM): 125% and 137%
Percentage (%) of cell viability (Capan1 cells; drug concentration 3.703704 µM, 3.7037 µM): 128% and 134%
IC50 (Capan1 cells; Capan1 cells, monotherapy): 18.4 µM
Weight change rate (%) ([1]; (W20-W0) / W0*100%): 7.5%
anti-tumor effects [1, 3]: significant anti-tumor effects
Tumor volume (day 0) ([1]; day 0, at grouping, Mean ± SEM, IN10018 25 mg/kg PO QD, RMC6236 PO QD (10 or 3/6 mg/kg, see doubts)): 258.0±34.4 mm^3
Weight (Day 0) ([1]; day 0, Mean ± SEM): 21.7 ± 0.3 g
Tumor volume (day 20) ([1]; day 20, IN10018 25 mg/kg PO QD, RMC6236 PO QD (10 or 3/6 mg/kg, see doubts)): 1945.7±174.8 mm^3
Weight (Day 20) ([1]; day 20, Mean ± SEM): 23.1 ± 0.7 g
Survival ([1]; number of animals surviving on day 12 / number of animals surviving on day 0 (so in the source)): 2/3
Weight change rate (%) ([2]; (W12-W0) / W0*100%): 8.3%
TGItv (%) ([2]; calculated based on data from day 12, vs. blank control group, RMC6236 10 mg/kg, anti-mPD-1 10 mg/kg, IN10018 25 mg/kg): 40.4%
anti-tumor effects [2, 3]: significant anti-tumor effects
Tumor volume (day 0) ([2]; day 0, at grouping, Mean ± SEM, RMC6236 10 mg/kg PO QD, anti-mPD-1 10 mg/kg IP BIW, IN10018 25 mg/kg PO QD): 94.1±9.8 mm^3
Weight (Day 0) ([2]; day 0, Mean ± SEM): 21.6 ± 0.4 g
Weight (Day 12) ([2]; day 12, Mean ± SEM): 23.4 ± 0.5 g
Tumor volume (day 12) ([2]; day 12, Mean ± SEM, RMC6236 10 mg/kg PO QD, anti-mPD-1 10 mg/kg IP BIW, IN10018 25 mg/kg PO QD): 1212.1±228.8 mm^3
Survival ([2]; number of animals surviving on day 12 / number of animals surviving on day 0): 6/6
